Test results taken from PubChem BioAssay AID772 (SRMLSC, 2007).
Only a part is listed here, and it is no random draw. The source made the active and inactive calls.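 The calls were made as follows: active = growth inhibition above 90%, meaning viable cell count cut by more than 90% versus vehicle controls; inactive = growth inhibition below 90%.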

Assay: HT29 colon tumor cell growth inhibition, primary screen, imaging, high content imaging, 72 h, CellTiter-Glo (AID 772)
Conditions: HCS imaging cell count, at 10 µM, hits give high values

| SMILES | growth inhibition |
| --- | --- |
| Cc1ccc(OCC(=O)OC2CN3CCC2CC3)cc1 (configuration not stated) | inactive: -10.6% |
| Cc1cccc(OCC(=O)OC2CN3CCC2CC3)c1 (configuration not stated) | inactive: 1.25% |
